Measurements taken from US12576087B2, “Aryloxypiperidine pyrazole compounds as indoleamine 2,3-dioxygenase inhibitors” (Merck Sharp & Dohme LLC, priority 2018, dated 2026).
Counter-ions that a name gives are not always drawn.

The chains behind the UniProt entries cited, without tags or fusion partners.
UniProt P14902, whole entry: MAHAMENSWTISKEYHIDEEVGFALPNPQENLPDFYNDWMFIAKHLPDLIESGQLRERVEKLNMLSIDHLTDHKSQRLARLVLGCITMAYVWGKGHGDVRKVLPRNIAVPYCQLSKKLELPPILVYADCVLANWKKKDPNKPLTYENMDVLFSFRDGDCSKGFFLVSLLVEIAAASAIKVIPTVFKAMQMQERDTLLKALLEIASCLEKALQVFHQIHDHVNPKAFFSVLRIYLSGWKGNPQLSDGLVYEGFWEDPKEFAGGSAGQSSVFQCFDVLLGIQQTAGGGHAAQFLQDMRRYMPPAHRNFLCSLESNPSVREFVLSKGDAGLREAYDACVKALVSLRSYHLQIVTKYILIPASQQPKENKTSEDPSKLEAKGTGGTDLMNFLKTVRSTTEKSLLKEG

Biological target: IDO1 (Homo sapiens, UniProt P14902)
Assay: IDO1 Cellular Assay in HeLa Cells Stimulated with IFNγ
Format: cell-based
Conditions: HeLa cells stimulated with IFNγ 100 ng/mL, about 48 hours

Row | EC50 [nM] | SMILES
1 | 8.2 | Cc1cc(F)ccc1OC1CCN(C(=O)Cn2nc(C(=O)N3CC[C@H](O)[C@H](F)C3)c3c2CCCC3)CC1 (racemic) [Example 77, 1-[4-(4-fluoro-2-methyl-phenoxy)-1-piperidyl]-2-[3-[rac-(3R,4S)-3-fluoro-4-hydroxy-piperidine-1-carbonyl]-4,5,6,7-tetrahydroindazol-1-yl]ethanone]
2 | 954 | Cc1cccnc1OC1CC2CCC(C1)N2C(=O)Cn1nc(C(=O)N2CCC(O)CC2)c2c1CCCC2 (racemic) [Example 182, 2-(3-(4-Hydroxypiperidine-1-carbonyl)-4,5,6,7-tetrahydro-1H-indazol-1-yl)-1-(3-((3-methylpyridin-2-yl)oxy)-8-azabicyclo[3.2.1]octan-8-yl)ethan-1-one]
3 | 112 | O=C(c1nn(CC(=O)N2CCC(Oc3ncccc3Cl)CC23CC3)c2c1CCCC2)N1CCC(OCCO)CC1 (single isomer, unassigned) [Example 62, (S or R)-1-(7-((3-chloropyridin-2-yl)oxy)-4-azaspiro[2.5]octan-4-yl)-2-(3-(4-(2-hydroxyethoxy)piperidine-1-carbonyl)-4,5,6,7-tetrahydro-1H-indazol-1-yl)ethanone]
4 | 422 | O=C(c1nn(CC(=O)N2CCC(Oc3ncccc3Cl)CC23CC3)c2c1CCCC2)N1CCC(OCCO)CC1 (single isomer, unassigned) [Example 63, (R or S)-1-(7-((3-chloropyridin-2-yl)oxy)-4-azaspiro[2.5]octan-4-yl)-2-(3-(4-(2-hydroxyethoxy)piperidine-1-carbonyl)-4,5,6,7-tetrahydro-1H-indazol-1-yl)ethanone]
5 | 322 | CCOC(=O)c1nn(CC(=O)N2CCC(Oc3ncccc3Cl)CC23CC3)c2c1CCCC2 (single isomer, unassigned) [Example 65, (S or R)-ethyl 1-(2-(7-((3-chloropyridin-2-yl)oxy)-4-azaspiro[2.5]octan-4-yl)-2-oxoethyl)-4,5,6,7-tetrahydro-1H-indazole-3-carboxylate]
6 | 284 | O=C(c1nn(CC(=O)N2CCC(Oc3ncccc3Cl)CC23CC3)c2c1CCCC2)N1CC[C@@H](O)[C@@H](F)C1 (single isomer, unassigned) [Example 69, 1-((S or R)-7-((3-chloropyridin-2-yl)oxy)-4-azaspiro[2.5]octan-4-yl)-2-(3-((3S,4R)-3-fluoro-4-hydroxypiperidine-1-carbonyl)-4,5,6,7-tetrahydro-1H-indazol-1-yl)ethanone, TFA]
7 | 4.63 | O=C(CO)N1CCN(C(=O)c2nn(CC(=O)N3CCC(Oc4ccccc4Cl)C4CC43)c3c2[C@@H]2C[C@@H]2C3)CC1 (single isomer, unassigned) [Example 168]
8 | 2.44 | O=C(c1nn(CC(=O)N2CCC(Oc3ccccc3Cl)C3CC32)c2c1[C@@H]1C[C@@H]1C2)N1CCC(OCCO)CC1 (single isomer, unassigned) [Example 169]
9 | 2.65 | O=C(CO)N1CCN(C(=O)c2nn(CC(=O)N3CCC(Oc4ccccc4Cl)C4CC43)c3c2[C@@H]2C[C@@H]2C3)CC1 (single isomer, unassigned) [Example 170]
10 | 1.77 | O=C(c1nn(CC(=O)N2CCC(Oc3ccccc3Cl)C3CC32)c2c1[C@@H]1C[C@@H]1C2)N1CCC(OCCO)CC1 (single isomer, unassigned) [Example 171]
11 | 73.8 | O=C(CO)N1CCN(C(=O)c2nn(CC(=O)N3CCC(Oc4ccccc4)C4CC43)c3c2[C@@H]2C[C@@H]2C3)CC1 (single isomer, unassigned) [Example 172]
12 | 13.4 | O=C(c1nn(CC(=O)N2CCC(Oc3ccccc3)C3CC32)c2c1[C@@H]1C[C@@H]1C2)N1CCC(OCCO)CC1 (single isomer, unassigned) [Example 173]
13 | 39.1 | C[C@H]1C[C@H](Oc2ncccc2C(F)(F)F)CCN1C(=O)Cn1nc(C(=O)N2CCC(O)CC2)c2c1CC1CC21 (stereo in doubt) [Example 57, 2-((3bR,4aR)-3-(4-hydroxypiperidine-1-carbonyl)-3b,4,4a,5-tetrahydro-1H-cyclopropa[3,4]cyclopenta[1,2-c]pyrazol-1-yl)-1-((2S,4R)-2-methyl-4-((3-(trifluoromethyl)pyridin-2-yl)oxy)piperidin-1-yl)ethanone]
14 | 4.72 | O=C(Cn1nc(C(=O)N2CCC(O)(CO)CC2)c2c1CCCC2)N1CCC(Oc2ccccc2Cl)CC1 [Example 1, 1-(4-(2-Chlorophenoxy)piperidin-1-yl)-2-(3-(4-hydroxy-4-(hydroxymethyl)piperidine-1-carbonyl)-4,5,6,7-tetrahydro-1H-indazol-1-yl)ethanone]
15 | 2.33 | Cc1ccccc1OC1CCN(C(=O)Cn2nc(C(=O)N3CCN(C(=O)CO)CC3)c3c2C[C@H]2C[C@@H]32)CC1 [Example 2, 2-Hydroxy-1-(4-((3bR,4aR)-1-(2-oxo-2-(4-(o-tolyloxy)piperidin-1-yl)ethyl)-3b,4,4a,5-tetrahydro-1H-cyclopropa[3,4]cyclopenta[1,2-c]pyrazole-3-carbonyl)piperazin-1-yl)ethanone]
16 | 2.01 | O=C(Cn1nc(C(=O)N2CCC(O)CC2)c2c1CCCC2)N1CCC(Oc2ccccc2Cl)CC1 [Example 3, 1-[4-(2-chlorophenoxy)-1-piperidyl]-2-[3-(4-hydroxypiperidine-1-carbonyl)-4,5,6,7-tetrahydroindazol-1-yl]ethanone]
17 | 3.84 | C[C@@H]1C[C@H](Oc2ccccc2Cl)CCN1C(=O)Cn1nc(C(=O)N2CCN(C(=O)CO)CC2)c2c1C[C@H]1C[C@@H]21 [Example 4, 1-((2R,4R)-4-(2-chlorophenoxy)-2-methylpiperidin-1-yl)-2-((3bR,4aR)-3-(4-(2-hydroxyacetyl)piperazine-1-carbonyl)-3b,4,4a,5-tetrahydro-1H-cyclopropa[3,4]cyclopenta[1,2-c]pyrazol-1-yl)ethanone]
18 | 1.47 | NC(=O)CN1CCN(C(=O)c2nn(CC(=O)N3CCC(Oc4ccccc4Cl)CC3)c3c2CCCC3)CC1 [Example 5, 2-(4-(1-(2-(4-(2-chlorophenoxy)piperidin-1-yl)-2-oxoethyl)-4,5,6,7-tetrahydro-1H-indazole-3-carbonyl)piperazin-1-yl)acetamide]
19 | 2.24 | CC(=O)NC1CCN(C(=O)c2nn(CC(=O)N3CCC(Oc4ccccc4Cl)CC3)c3c2CCCC3)CC1 [Example 6, N-(1-(1-(2-(4-(2-chlorophenoxy)piperidin-1-yl)-2-oxoethyl)-4,5,6,7-tetrahydro-1H-indazole-3-carbonyl)piperidin-4-yl)acetamide]
20 | 5.2 | O=C(Cn1nc(C(=O)N2CC[C@H](O)[C@H](F)C2)c2c1CCCC2)N1CCC(Oc2ccccc2Cl)CC1 [Example 7, 1-(4-(2-chlorophenoxy)piperidin-1-yl)-2-(3-((3R,4S)-3-fluoro-4-hydroxypiperidine-1-carbonyl)-4,5,6,7-tetrahydro-1H-indazol-1-yl)ethanone]
21 | 4.57 | C[C@@H]1C[C@H](Oc2ncccc2C(F)(F)F)CCN1C(=O)Cn1nc(C(=O)N2CCC(OCCO)CC2)c2c1C[C@H]1C[C@@H]21 [Example 8, 2-((3bR,4aR)-3-(4-(2-hydroxyethoxy)piperidine-1-carbonyl)-3b,4,4a,5-tetrahydro-1H-cyclopropa[3,4]cyclopenta[1,2-c]pyrazol-1-yl)-1-((2R,4R)-2-methyl-4-((3-(trifluoromethyl)pyridin-2-yl)oxy)piperidin-1-yl)ethanone]
